Results on 1 protein are retold here after patent publication US7462599.

For series [1], the target named is T1, [Gln^1]-FPP.
T1 chain: QEP

In series [2] the target is T2, [Gln^1]-TRH.
T2 chain: QHP

B1: recombinant human glutaminyl cyclase (QC, EC 2.3.2.5) (protein)
chain: VSPSASAWPEEKNYHQPAILNSSALRQIAEGTSISEMWQNDLQPLLIERYPGSPGSYAARQHIMQRIQRLQADWVLEIDTFLSQTPYGYRSFSNIISTLNPTAKRHLVLACHYDSKYFSHWNNRVFVGATDSAVPCAMMLELARALDKKLLSLKTVSDSKPDLSLQLIFFDGEEAFLHWSPQDSLYGSRHLAAKMASTPHPPGARGTSQLHGMDLLVLLDLIGAPNPTFPNFFPNSARWFERLQAIEHELHELGLLKDHSLEGRYFQNYSYGGVIQDDHIPFLRRGVPVLHLIPSPFPEVWHTMDDNEENLDESTIDNLNKILQVFVLEYLHL
B1: the KM (substrate conversion by QC) in series [1] came out at 87 µM; in series [2], 90 µM.
